Measured values reported in paper PMC8567228 (EMBO Reports, 2021).

Molecular target: the molecule itself
Test: mass photometry; 40 nM protein in 40 mM HEPES pH 7.5; OneMP mass photometer

B1: His6-SUMO-PPM1H wild type, full length (enzyme, human, UniProt Q9ULR3 1-514, looked up)
chain: MLTRVKSAVANFMGGIMAGSSGSEHGGGSCGGSDLPLRFPYGRPEFLGLSQDEVECSADHIARPILILKETRRLPWATGYAEVINAGKSTHNEDQASCEVLTVKKKAGAVTSTPNRNSSKRRSSLPNGEGLQLKENSESEGVSCHYWSLFDGHAGSGAAVVASRLLQHHITEQLQDIVDILKNSAVLPPTCLGEEPENTPANSRTLTRAASLRGGVGAPGSPSTPPTRFFTEKKIPHECLVIGALESAFKEMDLQIERERSSYNISGGCTALIVICLLGKLYVANAGDSRAIIIRNGEIIPMSSEFTPETERQRLQYLAFMQPHLLGNEFTHLEFPRRVQRKELGKKMLYRDFNMTGWAYKTIEDEDLKFPLIYGEGKKARVMATIGVTRGLGDHDLKVHDSNIYIKPFLSSAPEVRIYDLSKYDHGSDDVLILATDGLWDVLSNEEVAEAITQFLPNCDPDDPHRYTLAAQDLVMRARGVLKDRGWRISNDRLGSGDDISVYVIPLIHGNKLS
notes: PPM1H phosphatase, human, full length; Calculated mass of the fusion protein about 68.5 kDa; also called His6‐SUMO‐PPM1H^WT; 6HIS‐SUMO‐PPM1H WT; source: E. coli BL21-DE3-pLysS, purified (cobalt resin, Superdex 200); not shown: His6, N-terminal, kept; SUMO, N-terminal, kept
stoichiometry N: 2
